From ChEMBL document CHEMBL1255169, “Synthesis, structure-affinity relationships, and radiolabeling of selective high-affinity 5-HT4 receptor ligands as prospective imaging probes for positron emission tomography” (J Med Chem, 2010)

Protein sequences, listed by entry. Tags and fused reporters are not part of them. Lines headed by an entry give the natural chain unless they say otherwise; changes in a name come on top.
UniProt Q13639: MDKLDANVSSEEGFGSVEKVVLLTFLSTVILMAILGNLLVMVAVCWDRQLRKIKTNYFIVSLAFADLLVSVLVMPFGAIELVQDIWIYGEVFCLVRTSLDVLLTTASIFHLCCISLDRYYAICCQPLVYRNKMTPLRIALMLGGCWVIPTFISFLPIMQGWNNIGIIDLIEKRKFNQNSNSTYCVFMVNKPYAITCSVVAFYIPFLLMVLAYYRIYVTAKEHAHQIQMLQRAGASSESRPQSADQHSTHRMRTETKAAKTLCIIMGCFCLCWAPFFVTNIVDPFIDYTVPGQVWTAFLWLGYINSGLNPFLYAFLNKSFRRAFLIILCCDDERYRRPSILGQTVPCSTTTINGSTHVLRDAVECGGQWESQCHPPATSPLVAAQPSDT
UniProt P28566: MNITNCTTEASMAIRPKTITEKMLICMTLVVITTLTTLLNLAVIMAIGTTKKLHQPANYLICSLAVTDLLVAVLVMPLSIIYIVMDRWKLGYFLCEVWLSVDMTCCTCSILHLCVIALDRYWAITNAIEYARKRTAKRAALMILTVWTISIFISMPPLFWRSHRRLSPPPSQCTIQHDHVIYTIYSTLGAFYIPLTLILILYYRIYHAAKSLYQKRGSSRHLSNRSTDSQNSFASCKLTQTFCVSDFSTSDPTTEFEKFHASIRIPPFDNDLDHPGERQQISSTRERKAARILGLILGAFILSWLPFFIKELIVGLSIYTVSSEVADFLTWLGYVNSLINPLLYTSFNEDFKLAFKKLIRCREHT
UniProt P18901, whole entry: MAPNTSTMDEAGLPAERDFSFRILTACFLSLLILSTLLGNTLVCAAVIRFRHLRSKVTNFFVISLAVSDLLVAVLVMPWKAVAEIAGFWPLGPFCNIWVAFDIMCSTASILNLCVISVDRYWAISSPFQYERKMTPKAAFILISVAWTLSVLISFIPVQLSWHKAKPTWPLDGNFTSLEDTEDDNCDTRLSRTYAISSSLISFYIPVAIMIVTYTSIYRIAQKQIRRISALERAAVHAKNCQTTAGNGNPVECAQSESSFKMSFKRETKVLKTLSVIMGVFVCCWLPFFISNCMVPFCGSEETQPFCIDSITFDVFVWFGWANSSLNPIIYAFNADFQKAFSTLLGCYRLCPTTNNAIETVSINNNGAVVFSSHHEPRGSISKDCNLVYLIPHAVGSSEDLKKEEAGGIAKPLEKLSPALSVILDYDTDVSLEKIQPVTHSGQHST
UniProt P47747, whole entry: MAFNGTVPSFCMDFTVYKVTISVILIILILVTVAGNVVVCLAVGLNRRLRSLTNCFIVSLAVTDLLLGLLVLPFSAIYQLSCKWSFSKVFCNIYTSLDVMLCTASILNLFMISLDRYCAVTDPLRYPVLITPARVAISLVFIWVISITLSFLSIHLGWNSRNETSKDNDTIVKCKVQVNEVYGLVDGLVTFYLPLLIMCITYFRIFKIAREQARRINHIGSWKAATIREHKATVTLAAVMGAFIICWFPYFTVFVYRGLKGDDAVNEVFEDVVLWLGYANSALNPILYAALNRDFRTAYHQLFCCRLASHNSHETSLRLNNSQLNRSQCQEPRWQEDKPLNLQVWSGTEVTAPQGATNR
UniProt P41145: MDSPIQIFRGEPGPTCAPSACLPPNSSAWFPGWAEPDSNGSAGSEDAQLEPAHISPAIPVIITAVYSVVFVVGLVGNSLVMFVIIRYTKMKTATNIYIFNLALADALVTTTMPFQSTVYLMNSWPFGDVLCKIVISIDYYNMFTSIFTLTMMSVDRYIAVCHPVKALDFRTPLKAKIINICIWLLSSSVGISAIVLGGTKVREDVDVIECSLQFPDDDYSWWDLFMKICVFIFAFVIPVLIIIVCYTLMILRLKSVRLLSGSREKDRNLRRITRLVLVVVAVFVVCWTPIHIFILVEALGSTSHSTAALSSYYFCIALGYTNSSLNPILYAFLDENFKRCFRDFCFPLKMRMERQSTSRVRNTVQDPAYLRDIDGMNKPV
UniProt P11229: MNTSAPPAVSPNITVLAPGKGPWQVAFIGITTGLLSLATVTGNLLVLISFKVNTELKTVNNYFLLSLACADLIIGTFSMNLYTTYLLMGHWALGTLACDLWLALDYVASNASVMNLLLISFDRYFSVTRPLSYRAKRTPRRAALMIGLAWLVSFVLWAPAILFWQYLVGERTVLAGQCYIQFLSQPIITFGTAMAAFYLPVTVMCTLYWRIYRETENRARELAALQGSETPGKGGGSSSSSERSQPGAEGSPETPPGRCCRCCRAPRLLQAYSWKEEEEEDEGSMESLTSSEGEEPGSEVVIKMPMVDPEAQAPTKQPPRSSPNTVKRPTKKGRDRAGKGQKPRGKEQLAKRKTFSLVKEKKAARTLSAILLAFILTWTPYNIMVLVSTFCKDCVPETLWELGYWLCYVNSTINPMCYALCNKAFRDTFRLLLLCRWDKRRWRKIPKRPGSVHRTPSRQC

What was measured:
[1] = biological target: T1, 5-hydroxytryptamine receptor 4 (Homo sapiens, UniProt Q13639); test: Displacement of [3H]GR113808 from human recombinant 5HT4 receptor expressed in HEK293 cells; type: cell-based
[2] = biological target: T1, 5-hydroxytryptamine receptor 4; test: Agonist activity at 5HT4 receptor expressed in HEK293/L9 cells by cAMP assay; type: functional, cell-based
[3] = biological target: 5-hydroxytryptamine receptor 1E (Homo sapiens, UniProt P28566); test: Binding affinity to human 5-HT1E receptor
D(1A) dopamine receptor = D(1A) dopamine receptor (Rattus norvegicus, UniProt P18901); test: Binding affinity to rat dopamine D1 receptor
Histamine H2 receptor = Histamine H2 receptor (Cavia porcellus, UniProt P47747); test: Binding affinity to guinea pig histamine H2 receptor
[4] = biological target: Kappa-type opioid receptor (Homo sapiens, UniProt P41145); test: Binding affinity to human kappa opioid receptor
[5] = biological target: Muscarinic acetylcholine receptor M1 (Homo sapiens, UniProt P11229); test: Binding affinity to human muscarinic M1 receptor

| Ki [1] [µM] | EC50 [2] [µM] | Ki [3] [µM] | Ki (D(1A) dopamine receptor) [µM] | Ki (Histamine H2 receptor) [µM] | Ki [4] [µM] | Ki [5] [µM] | SMILES |
| --- | --- | --- | --- | --- | --- | --- | --- |
| 0.05 | 0.000178 | – | – | – | – | – | CCCCN1CCC(COC(=O)c2ccc(N)cc2OC)CC1 |
| – | – | > 10 | > 10 | > 10 | > 10 | > 10 | CCCCN1CCC(COC(=O)c2cc(F)c(N)c3c2OCCO3)CC1 |
